Antibody variant affinities, Ab-95 light chain, assay 2

Values reported by Engelhart et al. 2022, doi:10.1038/s41597-022-01779-4 (FLAb copy).

Antigen: PDVDLGDISGINAS, a 14-residue peptide of the SARS-CoV-2 spike HR2 region.

The variants keep the heavy chain, the linker and the frameworks of Ab-95 (scFv order VH, three GGGGS repeats, VL).
VH: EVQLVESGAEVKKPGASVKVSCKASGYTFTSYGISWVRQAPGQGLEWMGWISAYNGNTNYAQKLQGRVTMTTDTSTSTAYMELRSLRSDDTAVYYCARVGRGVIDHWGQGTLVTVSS
VL: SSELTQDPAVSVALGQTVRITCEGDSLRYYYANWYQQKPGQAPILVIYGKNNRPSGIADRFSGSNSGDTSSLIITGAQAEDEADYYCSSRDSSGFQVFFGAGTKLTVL

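The parent was found by panning a naive human phage display library on the peptide. AAYL52 was designed without a model: most single CDR substitutions and a random sample of double and triple ones. The assay is AlphaSeq: two haploid yeast populations carry antibody and antigen on their surface. After mating in shaken culture at 30 °C for 16 h, diploids were selected and their barcode pairs sequenced. Read counts were normalised to the haploid input and turned into Kd by a linear fit to BCL2-family pairs of known affinity, for each replicate. Each pool was mated in three replicate cultures.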

Positions count from residue 1 of the parent VL; Y30F puts F in place of Y.
Numbers give log10(Kd / nM), so 0 is 1 nM and 3 is 1 µM. Smaller is tighter.
Replicates are averaged; those with no signal do not enter the mean.
"n.d." means that the variant was in the library but no mating with the target was seen in that replicate; the authors take this as a sign of poor binding, and no number exists.
Nonspecific signal, from three strains lacking the peptide, appeared in 28% of pairings of library AAYL52, centred on 3.91 (5% of these signals below 2.90); values are not corrected for it. The control count says in how many pairings with the empty strains this scFv gave a signal, with their mean in brackets.

changes,"log10 Kd, replicates",mean log10 Kd (nM),empty controls
Y30F/S88M/Q96T,3.15 3.28 4.52,3.65,5/9 (4.05)
E23R/G24E/S55Q,5.20 n.d. n.d.,5.20,4/9 (3.51)
A32P/Q96H,1.83 1.75 1.43,1.67,5/9 (4.21)
R53K/Q96W/F98S,2.24 2.72 1.90,2.29,2/9 (4.08)
A32I/G94A/V97W,n.d. n.d. n.d.,n.d.,4/9 (4.21)
N51T/Q96C/F98T,3.49 n.d. n.d.,3.49,2/9 (3.45)
K50E/S88H/F98C,n.d. n.d. n.d.,n.d.,1/9 (3.71)
G24I/S55L/R90A,4.31 4.91 4.11,4.45,4/9 (3.66)
K50D/N52E/S89K,2.67 2.48 3.16,2.77,0/9
E23Q/Y30E/R53T,1.31 1.27 0.73,1.11,4/9 (3.18)
G24H/A32C/N51I,n.d. n.d. n.d.,n.d.,1/9 (2.76)
D25G/K50S/S89Q,3.00 3.35 3.09,3.15,2/9 (4.57)
E23Y/S55A/F95P,4.08 3.20 3.00,3.43,7/9 (4.12)
G49D/Q96Y/F98H,2.84 4.13 3.44,3.47,2/9 (4.20)
K50D/N51P/S89A,3.41 2.90 3.38,3.23,3/9 (3.33)
E23K/D25H/L27S,3.12 2.50 2.40,2.67,2/9 (3.56)
K50W/R53Y/S92E,n.d. 3.64 n.d.,3.64,3/9 (4.22)
G49H,3.42 3.04 4.22,3.56,1/9 (4.21)
G24F/V97H/F98H,n.d. n.d. n.d.,n.d.,2/9 (3.66)
A32C/P54I/F98P,2.51 n.d. n.d.,2.51,4/9 (4.15)
D25E/K50R/S92H,2.70 2.30 2.38,2.46,2/9 (4.02)
E23T/N33Q,n.d. 2.83 3.76,3.30,1/9 (2.86)
Y31Q/G49P/S88V,3.23 n.d. n.d.,3.23,1/9 (4.10)
R90D/D91Q,2.80 2.39 2.83,2.67,1/9 (4.42)
N52G/P54I/S89P,3.62 4.61 n.d.,4.11,2/9 (2.64)
N52R/G94W/F98W,4.01 4.57 n.d.,4.29,4/9 (3.61)
S26F/R53C/S89E,2.85 n.d. n.d.,2.85,1/9 (5.11)
S26D/Y31D/S88K,1.34 0.92 1.02,1.09,4/9 (4.19)
R28Q/Q96M/V97F,n.d. n.d. n.d.,n.d.,1/9 (5.02)
G49L/N51L/R90V,n.d. n.d. n.d.,n.d.,1/9 (4.05)
S26D/N52Q/F95A,2.81 2.20 2.35,2.45,2/9 (3.60)
L27E/Y29G/Y30I,2.49 2.63 2.26,2.46,3/9 (3.66)
L27E/K50P/G94L,4.20 5.20 3.35,4.25,4/9 (4.34)
D25Y/G49V/P54W,n.d. n.d. 4.16,4.16,0/9
R53T/F95I/Q96R,3.04 3.54 3.09,3.22,5/9 (3.84)
E23K/G49Q/S88Q,3.52 3.32 3.41,3.42,1/9 (3.20)
Y29F/S92I/G94N,3.67 n.d. n.d.,3.67,1/9 (4.39)

From the list, the first 5 with no signal in any replicate:

changes	log10 Kd, replicates	mean log10 Kd (nM)	empty controls
A32I/G94A/V97W	n.d. n.d. n.d.	n.d.	4/9 (4.21)
K50E/S88H/F98C	n.d. n.d. n.d.	n.d.	1/9 (3.71)
G24H/A32C/N51I	n.d. n.d. n.d.	n.d.	1/9 (2.76)
G24F/V97H/F98H	n.d. n.d. n.d.	n.d.	2/9 (3.66)
R28Q/Q96M/V97F	n.d. n.d. n.d.	n.d.	1/9 (5.02)